According to PubChem BioAssay AID624171 (National Center for Advancing Translational Sciences (NCATS), 2012):
Only a part is listed here, and it is no random draw. The source made the active and inactive calls. Calls come from the whole dose curve; as a rule, active = well fitted activation curve with a large enough effect; inconclusive = small, poorly fitted or top-dose-only effect; inactive = flat fitted curve, though single readings scatter.

assay: qHTS of Nrf2 Activators; conditions: AREc32 ARE-luciferase reporter (MCF7-derived line), luminescence, 24 h; at 46.1 µM (top of the series); note: % of control where 0% means no effect; nearly all actives have a fitted effect of over 65% in size
Excerpt: Many diseases have some form of oxidative stress injury and ties to inflammation, causing a host of problems for the patient. The antioxidant response element (ARE) plays an important role in alleviating the harmful effects of oxidative stress. The antioxidant response element (ARE) is a transcriptional regulatory element involved in the activation of genes coding for a number of antioxidant proteins and detoxifying enzymes. These enzymes work in concert to protect tissues from oxidative insults and chemical toxicities in human hepatocytes and immune cells. The protective effects of ARE activation are primarily triggered through Nrf2 (NF-E2-related factor) binding to and activating AREs. It is known that Nrf2 controls the production of over 250 antioxidant and detoxification proteins (Hu et al., 2006), thereby protecting tissues by increasing cellular antioxidant content and suppressing inflammatory signaling pathways. The transcription factor Nrf2 is a central link between oxidative chemicals, such as phenolic antioxidants and electrophilic compounds, and the activation of ARE. Nrf2 levels are constitutively low as a consequence of its interaction with Keap1, which targets its degradation (Zipper and Mulcahy, 2002). Electrophiles react with key cysteine residues in Keap1, releasing Nrf2 and allowing its translocation to the nucleus. Once within the nucleus, Nrf2 complexes with coactivators such as p300, and binds to the AREs to induce gene transcription of cytoprotective enzymes, resulting in the prevention of toxicity. Activation of Nrf2 protects tissues by increasing cellular antioxidant content and suppressing inflammatory signaling pathways. Identifying novel and potent Nrf2 activators by using the AREc32 cell line to detect ARE activation by small molecules will lead to the identification and development of probes to study protective pathways in multiple tissues. These specific probes are essential to study the ARE pathway, and eventually to determine whether this pathway does activate genes that could protect against a host of diseases, including cardiovascular diseases, obesity, diabetes, Alzheimer's, and Parkinson's disease.
This project's aim is to identify novel and potent Nrf2 activators by using the AREc32 cell line to detect ARE activation by small molecules, which will lead to the identification and development of probes to study the ARE pathway.
NIH Chemical Genomics Center [NCGC]
NIH Molecular Libraries Probe Centers Network [MLPCN]
Assay Submitter (PI): Curtis Klaassen, University of Kansas Medical Center
5 uL of 1000 cells/well of AREc32_Fluc cells are seeded into 1536-well plate in OPTI-MEM medium with 5% FBS. The plates are incubated overnight at 37 deg C with 5% CO2. Then through pin tool transfer, 23 nL of compounds are added to each well before a 24 hr incubation at 37 deg C with 5% CO2. After the addition of 2.5 uL of Steady-Glo. the plates are kept at RT for 30 min, before they are read on the ViewLux.

Row | Structure (SMILES) | activation
1 | CC1=NCCc2c1[nH]c1ccccc21.O=[N+]([O-])c1cc([N+](=O)[O-])c(O)c([N+](=O)[O-])c1 | inactive: 2.21%
2 | Cc1ccc(C)c(NP(C)(=O)Oc2ccccc2)c1 (stereo unspecified) | inactive: 0.41%
3 | CP(=O)(Nc1cccc(Br)c1)Oc1ccccc1 (stereo unspecified) | inactive: 0.16%
4 | Cc1cc(C)cc(OP(C)(=O)Nc2ccccn2)c1 (stereo unspecified) | inactive: -0.488%
5 | COc1ccccc1OP(C)(=O)Nc1cccc(Br)c1 (stereo unspecified) | inactive: 0.259%
6 | CCOC(=O)c1ccc(NP(C)(=O)Oc2cc(C)cc(C)c2)cc1 (stereo unspecified) | inactive: -0.0208%
7 | Cc1cc(C)cc(OP(C)(=O)Nc2ccc(C)cc2C)c1 (stereo unspecified) | inactive: -0.537%
8 | O=[N+]([O-])c1cc([N+](=O)[O-])c(-c2cnn(-c3ccccc3)c2)c([N+](=O)[O-])c1 | inactive: -1.6%
9 | Cc1nc2ccc3ccccc3c2s1.O=[N+]([O-])c1cc([N+](=O)[O-])c(O)c([N+](=O)[O-])c1 | inactive: 5.74%
10 | O=[N+]([O-])c1cc([N+](=O)[O-])c(-n2nnc3ccccc32)c([N+](=O)[O-])c1 | inactive: 0.0727%
11 | CN(Cc1cccnc1)C(=O)COc1ccc(Cl)c(Cl)c1.O=[N+]([O-])c1cc([N+](=O)[O-])c(O)c([N+](=O)[O-])c1 | inactive: 1.24%
12 | CN1CCCCC1COC(=O)C1(O)c2ccccc2CCc2ccccc21 (stereo unspecified) | inactive: 3.66%
13 | COc1ccccc1OP(C)(=O)Nc1c(C)cccc1C (stereo unspecified) | inactive: 0.389%
14 | CP(=O)(Nc1ccc(SC(F)(F)F)cc1)Oc1ccccc1 (stereo unspecified) | inactive: 0.514%
15 | CCCOc1ccc(NP(C)(=O)Oc2ccc(Cl)cc2)cc1 (stereo unspecified) | inactive: 0.597%
16 | O=[N+]([O-])c1cc([N+](=O)[O-])c(Nc2nnnn2CCO)c([N+](=O)[O-])c1 | inactive: 1.31%
17 | CC1=C2N=C(C=C3N=C(C(C)=C4[N-][C@@](C)([C@@H]5N=C1[C@](C)(CCC(=O)NC[C@@H](C)OP(=O)([O-])O[C@H]1[C@@H](O)[C@@H](n6cnc7cc(C)c(C)cc76)O[C@@H]1CO)[C@H]5CC(N)=O)[C@@](C)(CC(N)=O)[C@@H]4CCC(N)=O)[C@@](C)(CC(N)=O)[C@@H]3CCC(N)=O)C(C)(C)[C@@H]2CCC(N)=O.[C-]#N.[Co+3] | inactive: 0.19%
18 | CP(=S)(Nn1cnnc1)Oc1ccccc1 (stereo unspecified) | inactive: 0.295%
19 | CP(=O)(Nc1ccccc1Br)Oc1ccccc1 (stereo unspecified) | inactive: -0.407%
20 | COc1ccccc1OP(C)(=O)Nc1ccccc1 (stereo unspecified) | inactive: 0.124%
21 | O=[N+]([O-])c1cc([N+](=O)[O-])c(O)c([N+](=O)[O-])c1.c1ccc(Oc2ccncc2)cc1 | inactive: -0.0827%
